C2C12 statin: protects C2C12 myotubes from simvastatin toxicity; 330,000 tested, 0.78% active; rescue of ATP level, % at 7.49 µM; ATP luminescence, 48 h; scaled: DMSO 0, geranylgeraniol control 100;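 active means mean ATP rescue above about 67%, or every replicate alone reaching that limit, limit read from the data, passing the limit was not always enough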;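 further: myotubes were challenged with 10 µM simvastatin during compound exposure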
UUG fidelity: alters start codon recognition fidelity in yeast. S. cerevisiae UUG-firefly luciferase reporter, luminescence/redox ratio. AID 602363. activity score, % at 18.7 µM. hit rate 0.13% among 350,000;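 active = replicate mean at a twofold rise or more, about +100% in these data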;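 note: firefly luciferase made from a UUG start codon reports start codon fidelity; reporter light over untreated wells divided by growth signal over untreated wells; some hits fall short of that in this replicate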
Cneo AK release: Cryptococcus neoformans lysis via adenylate kinase release. C. neoformans lysis, adenylate kinase release luminescence, 4 h; normalised: neutral wells 0, clomiphene wells 100. lysis activity, % at 15 µM. 360,000 tested, 0.2% active;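 active means mean lysis activity across replicates of at least 80%, whatever share of replicates individually reach that level; inactive means mean lysis activity below 80%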
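Material: C. neoformans cells; Schedule: 4 h static compound exposure, 37 °C, read 1 h post-reagent; Measured by: adenylate kinase release luminescence; Read-out: signal increase indicating cell lysis; Controls: Clomiphene as positive lysis control.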
miR122 inh: blocks miR-122 activity in Huh7 sensor cells | Huh7 miR-122 Renilla luciferase sensor, 48 h; neutral wells = 0, positive control = 100 | activation (reporter increase), % at 12.5 µM | 340,000 tested, 0.3% active | AID 602342;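 active means mean replicate activation score at least 90 and every replicate individually at or above 90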;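 further: higher luciferase means less miR-122 activity so hits act as miR-122 inhibitors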
Starred values were filed as active, the others as inactive; x = no result; [ ] = dose if it differs, or a comment. Only some compounds are listed: those with a hit (about 1.2% of all), similar ones and a draw of the others.

Every second line gives: C2C12 statin | UUG fidelity | Cneo AK release | miR122 inh
1	CCCN1[C@@H]2c3ccc(-c4ccccc4F)c(=O)n3C[C@@H]2[C@@H](CO)[C@@H]1C(=O)N1CCN(C)CC1
    -30 | x | -1 | x
2	CCOC(=O)N(C)c1ccc(C(O)(C(F)(F)F)C(F)(F)F)cc1
    71* | 86 | 2 | 0
3	Cc1ccc(-c2nc(CSCC(=O)NCCCN3CCOCC3)c(C)o2)cc1
    3 | -9 | 0 | -13
4	Cc1ccc(-c2nc(CSCC(=O)NCCN3CCN(Cc4ccccc4)CC3)c(C)o2)cc1
    -7 | -7 | -1 | 170*
5	COC(=O)C[C@H]1CC[C@H]2[C@H](COc3ccc(NC(=O)Nc4ccc(C)cc4)cc3C(=O)N2C)O1
    -6 | 12 | -1 | 4[16.7 µM]
6	COc1ccc(C[C@@H]2CCc3cnnn3COC[C@H](C(C)C)NC2=O)cc1
    x | x | 3 | x
7	CCN1CCCC1Cn1cnc2c([nH]c3cccc(Cl)c32)c1=O (centres undefined)
    7 | -11 | 3 | -2
8	CCN1CCCC1Cn1cnc2c([nH]c3ccc(Cl)cc32)c1=O (centres undefined)
    99* | -13 | -5 | -2
9	Cn1c(O)c(C2=c3ccccc3=NC2=O)sc1=Nc1ccc(Cl)cc1
    97* | -20 | 3 | -1
10	O=C(O)Cn1c(O)c(C2=c3ccccc3=NC2=O)sc1=O
    1 | -1 | 1 | -2
11	CCOc1ccc(OCC)c(S(=O)(=O)N2CCCCC2)c1
    -2 | -10 | -4 | 18
12	CCOC(=O)N1CCN(S(=O)(=O)c2cc(OCC)ccc2OCC)CC1
    29 | -9 | 1 | 143*
13	O=C(Nc1c(C(=O)N2CCN(c3ccccn3)CC2)oc2ccccc12)c1ccc([N+](=O)[O-])cc1
    -24 | -1 | -1 | 143*
14	O=C(NCCC(=O)N1CCN(c2ccccn2)CC1)c1ccc([N+](=O)[O-])cc1
    -8 | -31 | 1 | x
15	O=C(NN1C(=O)c2ccccc2C1=O)C1CC2CCC1C2 (centres undefined)
    5 | x | x | -4
16	O=C(NN1C(=O)c2ccccc2C1=O)C1CCCCC1
    100* | -24 | 2 | 7
17	CN1CCN(C(=O)C[C@@H]2C[C@@H]3c4cc(NC(=O)CC5CC5)ccc4O[C@@H]3[C@@H](CO)O2)CC1
    -2 | 47 | 0 | 2[16.7 µM]
18	CCCNC(=O)Nc1ccc2c(c1)OC[C@H](C)N(CC1CCCC1)C[C@H](C)[C@H](OC)CN(C)C2=O
    -6 | -6 | -3 | x
19	O=C(CCN1CCc2ccccc21)c1ccc2c(c1)OCCO2
    115* | -12 | -1 | -6
20	O=C(CCN1CCc2ccccc2C1)c1ccc2c(c1)OCCO2
    -2 | -15 | -1 | -14
21	CSCC[C@H](NC(=O)OC(C)(C)C)c1nnc(SCC(N)=O)o1
    10 | x | x | -7
22	CCN(CC)C(=O)CSc1nnc([C@H](CCSC)NC(=O)OC(C)(C)C)o1
    143* | -10 | -1 | -9
23	C[C@H]1CN([C@@H](C)CO)S(=O)(=O)c2ccc(-c3ccc(C(=O)N(C)C)cc3)cc2O[C@@H]1CN(C)C(=O)C1CC1
    24 | x | x | 10[16.7 µM]
24	COc1cc(SC)ccc1C(=O)OCC(=O)NC1CCCCC1
    -4 | -11 | 0 | -4
25	COc1cc(SC)ccc1C(=O)NC1CCCCC1
    81* | -10 | 1 | 2
26	CCCN1[C@@H]2c3ccc(C4=CCCCC4)c(=O)n3C[C@@H]2[C@@H](CO)[C@@H]1C(=O)NCCCN(C)C
    20 | x | -5 | -3[16.7 µM]
27	Cc1ccc(S(=O)(=O)Nc2cccc(-c3cn4ccsc4n3)c2)cc1
    8 | 2 | 2 | 142*
28	O=C(Nc1cccs1)NC1CCCC1
    109* | -7 | -2 | 6
29	CCc1ccc(C(O)c2ncc(-c3ccccc3F)[nH]2)cc1 (centres undefined)
    x | -20 | 3 | x
30	COc1ccccc1-c1cnc(C(O)c2cc(Cl)cc(Cl)c2)[nH]1 (centres undefined)
    12 | -23 | 1 | 7
31	OC(c1ccc(F)cc1)c1ncc(-c2ccccc2F)[nH]1 (centres undefined)
    -2 | -16 | -2 | 146*
32	OC(c1cc(Cl)cc(Cl)c1)c1ncc(-c2ccccc2F)[nH]1 (centres undefined)
    4 | -10 | -4 | 150*
33	CCCC#Cc1cnc2c(c1)C(=O)N([C@@H](C)CO)C[C@H](C)[C@H](CN(C)C(=O)NCCC)O2
    13 | 1 | -1 | -1[16.7 µM]
34	COc1ccc(C(=O)Nc2ccc(S(=O)(=O)NCc3ccco3)cc2)cc1OC
    6 | 18 | -1 | 176*
35	CN1C(=O)c2cccc3c(S(=O)(=O)NCc4ccco4)ccc1c23
    110* | -5 | -3 | 56
36	Cc1cccc(C)c1NC(=O)CNC(=O)c1ccc(S(=O)(=O)NCc2ccco2)cc1
    4 | -15 | 0 | 6
37	COc1ccccc1NC(=O)c1ccc(S(=O)(=O)NCc2ccco2)cc1
    5 | -4 | 0 | 28
38	COc1ccc(S(=O)(=O)NCc2ccco2)c2ccccc12
    12 | -6 | 1 | 96*
39	Cc1cccc(NC(=O)c2cc(S(=O)(=O)NCc3ccco3)ccc2F)c1C
    79* | -2 | 0 | 34
40	O=C(C[C@H]1CC[C@H]2[C@@H](COC[C@@H](O)CN2C(=O)c2ccccc2)O1)N1CCc2ccccc2C1
    -2 | 28 | 0 | -6[16.7 µM]
41	COC(=O)C[C@@H]1CC[C@H]2[C@H](COc3ccc(NS(C)(=O)=O)cc3C(=O)N2C)O1
    25 | -9 | -1 | 33[16.7 µM]
42	O=C(O)CCC(=O)Nc1nnc(C(F)(F)F)s1
    115* | -4 | -1 | 0
43	O=C(C[C@H]1C[C@H]2c3cc(NS(=O)(=O)c4ccc(F)cc4)ccc3O[C@H]2[C@H](CO)O1)N1CCOCC1
    -4 | -8 | -2 | 0[16.7 µM]
44	CCc1ccccc1NC(=O)CCN1C(=O)c2ccccc2C1=O
    133* | -19 | -1 | -3
45	CCC(CC)C(=O)Nc1cccc(/C(C)=N/NC(=O)c2ccccc2Cl)c1
    112* | 0 | 1 | 1
46	Clc1ccc2[nH]cc(-c3nnnn3-c3ccc4ccccc4c3)c2c1
    x | x | x | 212*
47	COc1ccc(CN(C)C[C@@H]2OCCCC[C@@H](C)Oc3ccc(NC(=O)Cc4ccccc4)cc3C(=O)N([C@@H](C)CO)C[C@H]2C)cc1
    x | 29 | 3 | 1[16.7 µM]
48	Cc1cc(=O)oc(C)c1C(=O)NCCNC(=O)c1c(C)cc(=O)oc1C
    121* | 4 | -2 | -4
49	CCCn1c(/C=C/c2ccccc2)nc2ccccc21
    -12 | -16 | -1 | x
50	CC(C)n1c(/C=C/c2ccccc2)nc2ccccc21
    -3 | -14 | -11 | 192*

Going on with the list:
Every second line gives: C2C12 statin | UUG fidelity | Cneo AK release | miR122 inh
51	Cc1cc(C)c(S(=O)(=O)NCc2ccccn2)cc1C
    -10 | -19 | 3 | 101*
52	Cc1ccc(C(C)C)cc1S(=O)(=O)NCc1ccccn1
    2 | -4 | 1 | 283*
53	COc1ccc(C)cc1S(=O)(=O)NCc1ccccn1
    7 | -11 | 2 | 28
54	CC[n+]1c(/C=C/N(C)c2ccccc2)oc2ccc(F)cc21
    x | -10 | -1 | 335*
55	Cn1cccc1C(=O)C(=O)Nc1ccc(Cl)cc1
    93* | -33 | -3 | -2
56	Cc1ccc(-n2c(=O)cc(N3CCN(C(=O)c4ccco4)CC3)[nH]c2=O)cc1
    102* | -7 | 2 | 5

A draw from above in order of molar mass, descending.
Every second line gives: C2C12 statin | UUG fidelity | Cneo AK release | miR122 inh
56	Cc1ccc(-n2c(=O)cc(N3CCN(C(=O)c4ccco4)CC3)[nH]c2=O)cc1
    102* | -7 | 2 | 5
48	Cc1cc(=O)oc(C)c1C(=O)NCCNC(=O)c1c(C)cc(=O)oc1C
    121* | 4 | -2 | -4
52	Cc1ccc(C(C)C)cc1S(=O)(=O)NCc1ccccn1
    2 | -4 | 1 | 283*
54	CC[n+]1c(/C=C/N(C)c2ccccc2)oc2ccc(F)cc21
    x | -10 | -1 | 335*
55	Cn1cccc1C(=O)C(=O)Nc1ccc(Cl)cc1
    93* | -33 | -3 | -2
50	CC(C)n1c(/C=C/c2ccccc2)nc2ccccc21
    -3 | -14 | -11 | 192*
